Literature values, collected in patent US4469706A, “Selective beta-2 adrenergic antagonists for the treatment of glaucoma” (priority 1982, dated 1984).

Sequences of proteins named here, by UniProt entry; tags and fusion partners are left off.
UniProt P10608, whole entry: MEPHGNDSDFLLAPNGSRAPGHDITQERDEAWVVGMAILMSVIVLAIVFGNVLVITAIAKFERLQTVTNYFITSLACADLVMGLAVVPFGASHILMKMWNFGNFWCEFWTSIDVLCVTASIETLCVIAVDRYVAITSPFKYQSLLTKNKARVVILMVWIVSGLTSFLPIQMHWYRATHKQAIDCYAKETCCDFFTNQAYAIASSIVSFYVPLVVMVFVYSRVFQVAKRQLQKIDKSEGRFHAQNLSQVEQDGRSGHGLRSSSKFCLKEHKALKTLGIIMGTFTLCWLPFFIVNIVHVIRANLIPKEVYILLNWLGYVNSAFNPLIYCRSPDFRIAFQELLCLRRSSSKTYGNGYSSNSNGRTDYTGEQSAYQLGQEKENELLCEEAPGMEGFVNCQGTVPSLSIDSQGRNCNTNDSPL

Molecular target: T1, beta2 adrenergic receptor present in mammalian lung (Rattus norvegicus, UniProt P10608)
T1 construct: Washed particulate preparations of the above described tissues are suspended; host or cells: lung, washed particulate preparation
Conditions: read-out: Kd for IHYP Binding, Lung (D); cited from earlier work

Q: For `CC(C)(C)NCC(O)CON=C1c2ccccc2-c2ccccc21` (stereo not shown) [IPS 339, (t-butyl-amino 3-ol-2-propyl) oximino-9 fluorene, hydrochloride], which Kd is on record?
A: Its Kd is 0.5 nM.

Where a name gives a salt, the structure may show the parent alone.
